Chains of the proteins cited; added tags and fusions are not shown.
UniProt P21397, whole entry: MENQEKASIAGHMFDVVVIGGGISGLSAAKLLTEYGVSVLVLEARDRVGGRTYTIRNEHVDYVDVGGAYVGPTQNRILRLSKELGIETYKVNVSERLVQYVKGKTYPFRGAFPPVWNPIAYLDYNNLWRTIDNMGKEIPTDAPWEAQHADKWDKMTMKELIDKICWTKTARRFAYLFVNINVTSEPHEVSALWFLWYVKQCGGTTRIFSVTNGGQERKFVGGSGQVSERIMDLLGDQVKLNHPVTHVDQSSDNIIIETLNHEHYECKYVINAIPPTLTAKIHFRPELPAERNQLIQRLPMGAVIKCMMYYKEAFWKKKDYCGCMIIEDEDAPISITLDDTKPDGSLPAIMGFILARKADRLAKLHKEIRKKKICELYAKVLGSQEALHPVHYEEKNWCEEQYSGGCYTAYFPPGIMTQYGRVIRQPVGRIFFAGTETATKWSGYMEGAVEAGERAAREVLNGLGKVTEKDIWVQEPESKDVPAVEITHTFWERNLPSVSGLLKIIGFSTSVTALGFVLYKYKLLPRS

In ChEMBL document CHEMBL5325495, “Synthesis and anti-cancer potential of potent peripheral MAOA inhibitors designed to limit blood:brain penetration” (Bioorg Med Chem, 2023):

Biological target: Amine oxidase [flavin-containing] A (Homo sapiens, UniProt P21397)
Experiment: Inhibition of recombinant human MAO-A expressed in baculovirus infected BTI insect cells

IC50: 1500 nM
SMILES: NNCCc1ccccc1 [PHENELZINE]
